Test system: Murine leukemic cells L-1210
Assay: cell viability of L-1210 by uptake of methylene blue after Yoshixol
Assay type: cell-based
Conditions: 4 μl of 2M Yoshixol in ethanol
Description: This procedure was repeated twice. […] This filtered solution was injected intraperitoneally at a range of 0.2 cc/mice into CDF-1 strain of male mice (Charles-River Co, Saitama). Control group was treated with a same amount of cell free culture medium. On 31 days after the injection of the filtered solution, 0.3 cc of culture medium (1×10^6 cells/ml) was injected intraperitoneally in each group. Then, survival time of the experimental leukemia was investigated. […] In contrast, mice which were treated the filtered solution became to start death on 12 days after the transplantation. Longest survived period was prolonged to 14 days after the transplantation.
This procedure was repeated twice.

With `C=C1CC(C)(C)C=CC1=O` [Yoshixol, 4,4-dimethyl-6-methylene-2-cyclohexen-1-one] the “survival cell (cell viability, uptake of methylene blue)” value (after 20 hours) was “zero” and the “survival cell (cell viability, uptake of methylene blue)” value (after 30 hours) was “zero”.

Source: US7914793B2, “Method for producing an antigenic substance and antibody” (priority 1997, dated 2011)
